## Antibody variant affinities, Ab-14 light chain, assay 1

All variants were tested on one target, the spike HR2 peptide PDVDLGDISGINAS (SARS-CoV-2).

Ab-14 is the parent antibody, in scFv form: VH, then the linker GGGGSGGGGSGGGGS, then VL. The heavy chain is unchanged in all variants.
VH: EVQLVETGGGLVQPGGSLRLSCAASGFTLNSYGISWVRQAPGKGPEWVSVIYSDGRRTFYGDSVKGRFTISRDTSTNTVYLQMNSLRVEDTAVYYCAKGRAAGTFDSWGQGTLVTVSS
VL: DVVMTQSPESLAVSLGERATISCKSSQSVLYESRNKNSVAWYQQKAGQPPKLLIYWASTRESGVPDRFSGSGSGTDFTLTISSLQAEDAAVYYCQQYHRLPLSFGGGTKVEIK

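The parent was found by panning a naive human phage display library on the peptide. The library (AAYL50) carries one to three amino acid substitutions per variant, with no insertions or deletions. In AlphaSeq, yeast of one mating type display the scFv and yeast of the other type display the target. Binding brings cells together so that they mate, and sequencing counts the barcode pairs among the diploids. The ratio of observed to expected reads was calibrated, replicate by replicate, on BCL2-family standards whose Kd was known from biolayer interferometry. Each pool was mated in three replicate cultures.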

The whole VL of each variant is written out. Affinities are written as log10 Kd with Kd in nM; a lower number is a better binder. A mean of the replicates is given; it leaves out those without a signal. "ND" marks a missing value. The strain was present, yet no cells mated with the target were sequenced in that replicate, which points to weak or no binding.

VL	log10 Kd, replicates	log10 Kd (nM), mean	empty controls
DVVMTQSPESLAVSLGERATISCKSFQSVLYESFNKNPVAWYQQKAGQPPKLLIYWASTRESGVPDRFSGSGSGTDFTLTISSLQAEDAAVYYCQQYHRLPLSFGGGTKVEIK	ND ND ND	ND	1/9 (5.03)
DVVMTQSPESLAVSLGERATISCKSSQSVLYESRNKHSVAWYQQKAGQPPKLLIYHASTRESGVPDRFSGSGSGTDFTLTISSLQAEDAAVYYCQQYHRLPLSFGGGTKVEIK	0.98 1.08 0.87	0.98	2/9 (3.82)
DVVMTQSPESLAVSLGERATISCKSSQSVLYEDRNKNSFAWYQQKAGQPPKLLIYWASTRVSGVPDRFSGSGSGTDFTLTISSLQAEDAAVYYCQQYHRLPLSFGGGTKVEIK	1.45 1.65 1.54	1.55	2/9 (4.48)
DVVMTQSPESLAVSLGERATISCKSSQSVLQESRNKNSVAWYQQKAGQPPKLLIYWASTRRSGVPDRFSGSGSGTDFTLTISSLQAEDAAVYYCQQIHRLPLSFGGGTKVEIK	2.21 2.10 2.20	2.17	4/9 (4.13)
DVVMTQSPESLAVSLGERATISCKSSQSVLYESRNKNSVAWYQQKAGQPPKLLIYWAATRESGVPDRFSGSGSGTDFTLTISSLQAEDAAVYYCQQYHLLPLSFGGGTKVEIK	2.62 2.43 2.23	2.43	2/9 (3.90)
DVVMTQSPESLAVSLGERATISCKSSQSVKYESRNKNSVKWYQQKAGQPPKLLIYWASTRKSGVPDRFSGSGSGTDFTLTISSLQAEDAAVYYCQQYHRLPLSFGGGTKVEIK	ND ND ND	ND	1/9 (3.58)
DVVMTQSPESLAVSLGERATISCKSSQHVLYEKRNKNSVCWYQQKAGQPPKLLIYWASTRESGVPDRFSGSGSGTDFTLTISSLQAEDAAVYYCQQYHRLPLSFGGGTKVEIK	5.34 3.81 5.80	4.99	1/9 (4.31)
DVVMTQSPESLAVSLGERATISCKSSQSVLWESRNKNSVAWYQQKAGQPPKLLIYKASTRENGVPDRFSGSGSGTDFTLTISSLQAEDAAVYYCQQYHRLPLSFGGGTKVEIK	0.62 0.90 0.75	0.76	2/9 (4.21)
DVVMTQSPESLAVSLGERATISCKSSQSVLYESRNKNSVAWYQQKAGQPPKLLIYWAFTRLSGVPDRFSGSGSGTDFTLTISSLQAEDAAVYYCQQYHRLPSSFGGGTKVEIK	ND ND ND	ND	0/9
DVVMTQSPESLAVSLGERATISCKSSGSVLYESRNKNFVAWYQQKAGQPPKLLIYWASTREHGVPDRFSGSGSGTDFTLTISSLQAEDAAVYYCQQYHRLPLSFGGGTKVEIK	4.69 2.63 ND	3.66	0/9
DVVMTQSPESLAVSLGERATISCKSSQSVLYESRNKNSVAWYQQKAGQPPKLLIYWASERESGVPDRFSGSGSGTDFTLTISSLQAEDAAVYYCQQYHRLLLSFGGGTKVEIK	0.36 0.64 0.65	0.55	1/9 (3.79)
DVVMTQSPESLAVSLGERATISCKSSQSVLPESRNKNSPAWYQQKAGQPPKLLIYWASTREVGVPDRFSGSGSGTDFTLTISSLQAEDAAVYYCQQYHRLPLSFGGGTKVEIK	4.57 ND ND	4.57	1/9 (4.57)
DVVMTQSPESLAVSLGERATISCWSSQSVLYESRNKNFEAWYQQKAGQPPKLLIYWASTRESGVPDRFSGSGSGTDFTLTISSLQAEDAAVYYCQQYHRLPLSFGGGTKVEIK	ND ND ND	ND	1/9 (2.04)
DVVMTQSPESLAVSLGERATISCASSQSVLYESRGKNSVAWYQQKAGQPPKLLIYWASTRESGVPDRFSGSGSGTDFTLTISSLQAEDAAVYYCQQYHRLPLSFGGGTKVEIK	ND ND ND	ND	1/9 (4.28)
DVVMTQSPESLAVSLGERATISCKSSQMVLYESRNKNSVAWYQQKAGQPPKLLIYWASTQESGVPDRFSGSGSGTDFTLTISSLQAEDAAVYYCQMYHRLPLSFGGGTKVEIK	ND ND 4.39	4.39	1/9 (3.56)
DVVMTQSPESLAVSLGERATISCKSSQSVLYESRGKPSVAWYQQKAGQPPKLLIYWASTRESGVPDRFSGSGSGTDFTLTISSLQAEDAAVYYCQQYHRLALSFGGGTKVEIK	2.97 2.94 2.64	2.85	0/9
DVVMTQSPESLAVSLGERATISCKSSQSVLYESRGKNSVAWYQQKAGQPPKLLIYWACTRYSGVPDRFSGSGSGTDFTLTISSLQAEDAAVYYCQQYHRLPLSFGGGTKVEIK	2.88 4.22 3.97	3.69	4/9 (4.02)
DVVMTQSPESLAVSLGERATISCKSSLSVLYESRNKNSSAWYQQKAGQPPKLLIYWAKTRESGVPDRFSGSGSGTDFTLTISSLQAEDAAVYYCQQYHRLPLSFGGGTKVEIK	ND ND ND	ND	0/9
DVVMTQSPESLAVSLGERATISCKSSQSVLYESRTKNEVAWYQQKAGQPPKLLIYWAFTRESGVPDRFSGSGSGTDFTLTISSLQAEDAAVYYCQQYHRLPLSFGGGTKVEIK	ND 3.74 ND	3.74	1/9 (3.92)
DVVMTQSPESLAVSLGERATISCKSSQSVLYESRQKNSVAWYQQKAGQPPKLLIYWSSTRESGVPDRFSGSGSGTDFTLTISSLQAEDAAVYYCQQYMRLPLSFGGGTKVEIK	1.00 1.21 1.15	1.12	5/9 (4.26)
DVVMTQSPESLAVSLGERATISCKSSQSVLYESRVKNSVAWYQQKAGQPPKLLIYWASTRESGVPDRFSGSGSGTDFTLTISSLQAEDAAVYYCQISHRLPLSFGGGTKVEIK	2.64 2.33 2.63	2.53	3/9 (4.54)
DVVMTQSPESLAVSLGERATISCKSSQSVLYESKNKNSVAWYQQKAGQPPKLLIYWASTRHSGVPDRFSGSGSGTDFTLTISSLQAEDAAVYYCQQYHRLPLRFGGGTKVEIK	2.62 2.58 2.31	2.50	0/9
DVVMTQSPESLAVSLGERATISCKSQQSVLFESRNKISVAWYQQKAGQPPKLLIYWASTRESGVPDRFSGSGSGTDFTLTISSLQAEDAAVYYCQQYHRLPLSFGGGTKVEIK	ND 3.95 3.44	3.70	2/9 (3.78)
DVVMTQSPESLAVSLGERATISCKASQSVLYESRNKNSVPWYQQKAGQPPKLLIYRASTRESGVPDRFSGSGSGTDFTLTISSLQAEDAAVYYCQQYHRLPLSFGGGTKVEIK	ND 3.71 3.73	3.72	5/9 (3.13)
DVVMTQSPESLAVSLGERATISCKSSQSVLYESRDKISVAWYQQKAGQPPKLLIYWASTRESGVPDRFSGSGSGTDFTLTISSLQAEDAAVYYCQQGHRLPLSFGGGTKVEIK	ND 3.90 3.93	3.91	2/9 (4.47)
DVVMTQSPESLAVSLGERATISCKSSQSVLYESRNKNSVAWYQQKAGQPPKLLIYWASTRESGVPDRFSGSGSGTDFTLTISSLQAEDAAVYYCCQYHRLPLSFGGGTKVEIK	ND ND ND	ND	3/9 (3.26)

Repeated from above, the 2 best binders with a signal in all replicates:

VL,"log10 Kd, replicates","log10 Kd (nM), mean",empty controls
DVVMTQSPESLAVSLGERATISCKSSQSVLYESRNKNSVAWYQQKAGQPPKLLIYWASERESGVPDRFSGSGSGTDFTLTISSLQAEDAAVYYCQQYHRLLLSFGGGTKVEIK,0.36 0.64 0.65,0.55,1/9 (3.79)
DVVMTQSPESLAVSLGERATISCKSSQSVLWESRNKNSVAWYQQKAGQPPKLLIYKASTRENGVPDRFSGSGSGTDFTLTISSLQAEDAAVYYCQQYHRLPLSFGGGTKVEIK,0.62 0.90 0.75,0.76,2/9 (4.21)

In this assay the parent's reference entry averaged 0.65; its copy inside this library read 1.68. Three control strains display no target. For library AAYL50, 18% of the pairings with them gave a signal, with a median of 4.19 and one signal in twenty below 2.99, so weak values seen in few replicates may be background. The control count says in how many pairings with the empty strains this scFv gave a signal, with their mean in brackets.

Reference: Engelhart et al. 2022, doi:10.1038/s41597-022-01779-4. File: FLAb, binding data.